# Experimental logP (octanol/water) values from OPERA 2.9

Source: data files of OPERA 2.9 (Mansouri et al.), github.com/kmansouri/OPERA.

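OPERA's authors assembled the values from existing databases and did not measure them anew. A listed value is a point estimate from one report or more. Method and conditions are not stated for these values. Where a salt, mixture or single isomer is drawn, the source does not say that exactly this form was tested. Unmarked limits or estimates from the upstream databases cannot be ruled out.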

The octanol-water partition coefficient is given as log10; larger values mean a more lipophilic compound. "via" names the databases from which the curators took the value.

{"smiles": "CC(C)(C)c1cc(Cc2cc(C(C)(C)C)c(O)c(C(C)(C)C)c2)cc(C(C)(C)C)c1O", "name": "4,4'-Methylenebis(2,6-di-t-butylphenol)", "logP (octanol/water)": "6.95", "via": "eChemPortal"}
{"smiles": "O=C1CC(c2cccc(C(F)(F)F)c2)C(=O)N1", "stereo": "stereo unspecified", "name": "3-[3-(Trifluoromethyl)phenyl]pyrrolidine-2,5-dione", "logP (octanol/water)": "1.26", "via": "OCHEM"}
{"smiles": "CC(O)=NC(=O)C(N)CCCNC(=N)N", "stereo": "stereo unspecified", "name": "N-Arginylethanimidic acid", "logP (octanol/water)": "-2.84", "via": "OCHEM"}
{"smiles": "NCCCNCCNCCCN", "name": "N,N'-Bis(3-aminopropyl)ethylenediamine", "logP (octanol/water)": "-1.55", "via": "eChemPortal"}
{"smiles": "Nc1ccc(N)c(Cl)c1", "name": "2-Chloro-1,4-diaminobenzene", "logP (octanol/water)": "0.44", "via": "eChemPortal"}
{"smiles": "CCN(CC)c1ccc(C(=C2C=CC(=[N+](CC)CC)C=C2)c2cc(O)c(S(=O)(=O)[O-])cc2S(=O)(=O)[O-])cc1.CCN(CC)c1ccc(C(=C2C=CC(=[N+](CC)CC)C=C2)c2cc(O)c(S(=O)(=O)[O-])cc2S(=O)(=O)[O-])cc1.[Ca+2]", "name": "Acid Blue 3", "logP (octanol/water)": "-1.99", "via": "eChemPortal"}
{"smiles": "CC1(C)S[C@@H]2[C@H](N=C(O)CCOc3ccccc3)C(=O)N2[C@H]1C(=O)O", "logP (octanol/water)": "2.28", "via": "OCHEM"}
{"smiles": "O=C(NCCCCCCNC(=O)S(=O)(=O)O)S(=O)(=O)O.[HH].[HH].[Na+].[Na+]", "logP (octanol/water)": "-3.05", "via": "eChemPortal"}
{"smiles": "Cc1cc(=O)n2ccccc2n1", "name": "2-Methyl-4H-pyrido[1,2-a]pyrimidin-4-one", "logP (octanol/water)": "0.57", "via": "OCHEM"}
{"smiles": "C[C@@H](N)CCO", "name": "(R)-3-aminobutan-1-ol", "logP (octanol/water)": "-0.7", "via": "eChemPortal"}
{"smiles": "O=C(O)C1CCC(C(=O)O)CC1", "stereo": "stereo unspecified", "name": "1,4-Cyclohexanedicarboxylic acid", "logP (octanol/water)": "1.32", "via": "eChemPortal"}
{"smiles": "O=S(=O)([O-])c1ccc2[nH]c(-c3ccccc3)c(/N=N/c3ccccc3S(=O)(=O)c3ccccc3)c2c1.[Na+]", "logP (octanol/water)": "-0.3", "via": "eChemPortal"}
{"smiles": "CCn1cc[n+](C)c1.CS(=O)(=O)[O-]", "name": "1-Ethyl-3-methylimidazolium methanesulfonate", "logP (octanol/water)": "-3.1", "via": "eChemPortal"}
{"smiles": "NC(CO)CO", "name": "1,3-Propanediol, 2-amino-", "logP (octanol/water)": "-1.82", "via": "eChemPortal"}
{"smiles": "CC(C)(O/N=C(\\C(=O)NC1C(=O)N2C(C(=O)[O-])=C(C[n+]3ccccc3)CSC12)c1csc(N)n1)C(=O)O.O.O.O.O.O", "stereo": "stereo partly drawn", "name": "Ceftazidime pentahydrate", "logP (octanol/water)": "-1.6", "via": "OCHEM, PubChem"}
{"smiles": "C=CC1=C(C(=O)O)N2C(=O)[C@@H](NC(=O)/C(=N\\OCC(=O)O)c3csc(N)n3)[C@H]2SC1", "name": "Cefixime", "logP (octanol/water)": "-0.4", "via": "PubChem"}
{"smiles": "CCc1ccc(C)nc1", "name": "5-Ethyl-2-methylpyridine", "logP (octanol/water)": "2.245", "via": "PubChem, eChemPortal"}
{"smiles": "C(=Cc1ccc(-c2nc3ccccc3o2)cc1)c1ccc(-c2nc3ccccc3o2)cc1", "name": "4,4'-Bis(2-benzoxazolyl)stilbene", "logP (octanol/water)": "5.499", "via": "eChemPortal"}
{"smiles": "O=C(c1ccc(OCCN2CCCCC2)cc1)c1c(-c2ccc(O)cc2)sc2cc(O)ccc12", "name": "Raloxifene", "logP (octanol/water)": "5.2", "via": "PubChem"}
{"smiles": "O=C(O)CN(CCO)CC(=O)O", "name": "N-(2-Hydroxyethyl)iminodiacetic acid", "logP (octanol/water)": "-1.17", "via": "eChemPortal"}
{"smiles": "C[C@]1(Cn2ccnn2)[C@H](C(=O)O)N2C(=O)C[C@H]2S1(=O)=O", "name": "Tazobactam", "logP (octanol/water)": "-2.7", "via": "eChemPortal"}
{"smiles": "Cn1c(N)cc(=O)n(C)c1=O", "logP (octanol/water)": "-0.42", "via": "eChemPortal"}
{"smiles": "C[C@@H]1O[C@@H]1P(=O)(O)O", "name": "Fosfomycin", "logP (octanol/water)": "-1.6", "via": "PubChem"}
{"smiles": "COB1OB(OC)OB(OC)O1", "name": "Trimethoxycyclotriboroxane", "logP (octanol/water)": "-0.93", "via": "eChemPortal"}
{"smiles": "CCCCCCCCCc1nc(N)nc(N)n1", "name": "6-Nonyl-1,3,5-triazine-2,4-diamine", "logP (octanol/water)": "1.38", "via": "eChemPortal"}
{"smiles": "ClC(COCC(Cl)C(Cl)(Cl)Cl)C(Cl)(Cl)Cl", "stereo": "stereo unspecified", "logP (octanol/water)": "5.3", "via": "OCHEM"}
{"smiles": "[Br-].c1ccc(C[n+]2ccccc2)cc1", "name": "1-Benzylpyridin-1-ium bromide", "logP (octanol/water)": "-2.62", "via": "OCHEM"}
{"smiles": "Nc1ccc(/N=N/c2ccc3c(S(=O)(=O)[O-])cccc3c2O)cc1.[Na+]", "name": "C.I. Acid Brown 4", "logP (octanol/water)": "-1.652", "via": "eChemPortal"}
{"smiles": "O=C([O-])c1ccc(S(=O)(=O)[N-]Cl)cc1.[Na+].[Na+]", "name": "Monalazone disodium", "logP (octanol/water)": "1.45", "via": "eChemPortal"}
{"smiles": "Clc1cnc2ccccc2n1", "name": "2-Chloroquinoxaline", "logP (octanol/water)": "2.23", "via": "OCHEM"}
{"smiles": "CC(C)c1ccc(C(C)C)cc1", "name": "1,4-Diisopropylbenzene", "logP (octanol/water)": "5.23", "via": "OCHEM, eChemPortal"}
{"smiles": "CC(CCOS(=O)(=O)c1ccccc1)[N-]c1ccc([N-]C(C)CCOS(=O)(=O)c2ccccc2)c2c1C(=O)c1ccccc1C2=O.[Na+].[Na+]", "stereo": "stereo unspecified", "logP (octanol/water)": "1", "via": "eChemPortal"}
{"smiles": "CS(=O)(=O)c1ccc(C(=O)Nc2ccc(Cl)c(-c3ccccn3)c2)c(Cl)c1", "name": "Vismodegib", "logP (octanol/water)": "2.7", "via": "PubChem"}
{"smiles": "O=C1c2ccccc2-c2ccc([N+](=O)[O-])cc21", "name": "2-Nitro-9-fluorenone", "logP (octanol/water)": "3.06", "via": "OCHEM"}
{"smiles": "CC1=NN(c2ccc(S(=O)(=O)[O-])cc2)C(=O)C1/N=N/c1ccc(C)c(S(=O)(=O)Nc2ccccc2)c1.[Na+]", "stereo": "stereo partly drawn", "logP (octanol/water)": "-0.8", "via": "eChemPortal"}

Extract of 2 entries:

| SMILES | name | logP (octanol/water) | via |
|---|---|---|---|
| CC(O)=NC(=O)C(N)CCCNC(=N)N (stereo unspecified) | N-Arginylethanimidic acid | -2.84 | OCHEM |
| CCCCCCCCCc1nc(N)nc(N)n1 | 6-Nonyl-1,3,5-triazine-2,4-diamine | 1.38 | eChemPortal |